Experimental findings from patent US20250214965A1, “COMPOUND AS KIF18A INHIBITOR” (Hangzhou Innogate Pharma Co., Ltd., priority 2021, published 2025) are described below.

SMILES strings stand for the structures.

The series can be described thus: Pharmacokinetic study in rats. As to conditions: male SD rats, oral 3 mg/kg. The protocol: Instruments: XEVO TQ-S LC/MS instrument was produced by Waters. All measurement data were collected and processed by Masslynx V4.1 software, and the data were calculated and processed by Microsoft Excel. The statistical moment method of WinNonLin 8.0 software was used to calculate the pharmacokinetic parameters. These mainly include kinetic parameters Tmax, T1/2, Cmax, AUC0-24h etc. Column: ACQUITY UPLC BEH C18 (2.1 mm×50 mm, 1.7 m); column temperature 40° C.; mobile phase A is water (0.1% formic acid), mobile phase B is acetonitrile, flow rate is 0.350 mL/min, gradient elution is adopted, the elution gradient is 0.50 min: 10% B; 1.50 min: 90% B; 2.50 min: 90% B; 2.51 min: 10% B; 3.50 min: stop. Injection volume: 1 μL.
Animals: 3 male SD rats with a weight range of 200-220 g were purchased and kept in the laboratory of the Experimental Animal Center for 2 days and then used. They were fasted for 12 hours predose and 4 hours after dosing. Drinking water was free during the test. After the rats were gavage, blood samples were taken according to the established time point.
Solvent: 0.4% ethanol+0.4% Tween80+99.2% (0.5% methylcellulose M450). Preparation of the solution for intragastrical administration: the compounds were accurately weighed and added to the solvent, and ultrasound was used at room temperature for 5 minutes to completely dissolve the drug, and a 0.3 mg/mL medicinal solution was prepared.
Pharmaceutical samples: Generally, multiple samples with similar structures (with a molecular weight difference of more than 2 units) are taken, accurately weighed, and administered together (cassette PK). In this way, multiple compounds can be screened at the same time and their oral absorption rates can be compared. A single administration was also used to study the pharmacokinetics of the drug sample in rats.
After intragastrical administration, blood was taken from the orbit at 0.25, 0.5, 1, 2, 4, 8, 10 and 24 hours. Then 50 μL of the plasma sample was taken and added 200 μL of acetonitrile (including internal standard control verapamil 2 ng/mL), vortexed for 3 min and centrifuged at 20000 rcf, 4° C. for 10 min. The supernatant plasma was used for LC-MS/MS analysis.
The compounds were accurately weighed to prepare different concentrations, and quantitative analysis on mass spectrometry was performed to establish a standard curve, and then the concentration of the above-mentioned compound in the plasma was tested to obtain its concentration at different time points. All measurement data were collected and processed by relevant software, and the statistical moment method was used to calculate the pharmacokinetic parameters (mainly including kinetic parameters Tmax, T1/2, Cmax, AUC0-24h etc).

Turning to `Cc1cc(NC(=O)c2ccc(NS(=O)(=O)[C@H](C)CO)cc2N2CCC(=C(F)F)CC2)nc(N2CCC(F)(F)CC2)c1F`, the AUC0-24 h turned out to be 5634.70 ng·h/mL, the Cmax worked out at 424.35 ng/mL, the T1/2 turned out to be 6.99 h and the Tmax is on record as 6.00 h.

The term Cmax denotes the maximum level reached in the sampled fluid or tissue. As a reminder, the Tmax is the time at which the peak concentration occurs.
